CAL PDZ FP-1 – CAL PDZ peptide-binding inhibitors, primary screen, biochemical, fluorescence polarization, Cer-tagged CAL PDZ, HTS; Golgi-associated PDZ and coiled-coil motif-containing protein (Homo sapiens), Q9HD26; purified CAL PDZ, TMR-peptide fluorescence polarization, 1 h; inhibition, % at 20 µM; 0.02% of 330,000 active;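 active = highest replicate inhibition of at least 40%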;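 also: plate controls were DMSO neutral control wells for no effect and unlabeled competitor peptide control wells for full effect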
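material = purified tagged CAL PDZ domain construct (CerCALP) | buffer or medium = sodium phosphate/NaCl buffer pH 7.4 with TCEP, IgG, Thesit | reagent = TMR-labelled reporter peptide T*-PRC34 bound in PDZ groove | incubation = 1 h room-temperature incubation prior to read | measured by = fluorescence polarization (mP) | evaluation = percent inhibition from loss of millipolarization | control set = unlabelled peptide and DMSO controls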
dFosB act – activators of delta FosB homodimer, primary screen, biochemical, fluorescence polarization, TAMRA-CDK5 oligo, single point. 0.99% of 340,000 active. activation, % at 25 µM. purified delta FosB; percent of positive-control signal above neutral wells. AID 493131, 2011;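 active = mean activation above about 17%, with every replicate also reaching it, limit read from the data, passing the limit was not always enough; inconclusive = only one of the two conditions met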
CDK5 p35 inh – inhibitors of human CDK5/p35 kinase, primary screen, biochemical, single concentration; Cyclin-dependent kinase 5 (Homo sapiens) + Cyclin-dependent kinase 5 activator 1 (Homo …; Recombinant CDK5/p35, ADP-Glo luminescence, 60 min; inhibition, % at 10 µM; 0.01% of 330,000 active; AID 488839, 2010;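 active = highest replicate inhibition of at least 50% and at least 75% of replicates reaching 50%; inconclusive = only one of the two criteria met; inactive = both criteria failed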;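 also: plate controls were DMSO neutral control for no effect and GW8510 at 10 µM for full effect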
CAL PDZ FP-2 – untagged CAL PDZ binding inhibitors, primary screen, biochemical, fluorescence polarization, HTS. purified CAL PDZ, TMR-peptide fluorescence polarization, 1 h. inhibition, % at 24.9 µM. 0.92% of 300,000 active. AID 602252, 2012;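 active = mean inhibition of at least 30% with at least half of replicates also reaching 30%; inconclusive = no clear call, values can overlap the other calls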;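 also: 0% = DMSO neutral control and 100% = excess unlabeled competitor peptide PRC23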
DYRK1A inh – rat Dyrk1A kinase inhibitors, primary screen, biochemical, single point, plate reader; 0.43% of 310,000 active; ADP-Glo luminescence, NFATc1 peptide; AID 504441, 2011; Dual specificity tyrosine-phosphorylation-regulated kinase 1A (Rattus norvegicus), Q63470; inhibition, % at 12.5 µM; in the data active = inhibition above about 50%;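 also: plate controls were vehicle with enzyme for no effect and no enzyme for full effect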
Yeast UUG start – yeast start codon fidelity modulation. S. cerevisiae UUG-firefly luciferase reporter, luminescence/redox ratio. activity score, % at 18.7 µM. 0.13% of 350,000 active;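 active = replicate mean at a twofold rise or more, about +100% in these data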;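 also: firefly luciferase made from a UUG start codon reports start codon fidelity; reporter light over untreated wells divided by growth signal over untreated wells; some hits fall short of that in this replicate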
* = called active by the depositor. An excerpt weighted towards active compounds, which were near 1.7% of everything screened.

O=C1c2cccc3cc([N+](=O)[O-])cc(c23)C(=O)N1CCN1CCCC1 was read as CAL PDZ FP-1 2, dFosB act 58*, CDK5 p35 inh 0, CAL PDZ FP-2 -4, DYRK1A inh -2 and Yeast UUG start -4.
For C[C@H]1CN([C@@H](C)CO)C(=O)c2cc(-c3ccccc3)cnc2O[C@H]1CN(C)Cc1cccnc1 the results were Yeast UUG start -5.
`O=C(NCc1ccc(Cl)cc1)c1cc2ccccc2oc1=O` gave CAL PDZ FP-1 -1, dFosB act 4, CDK5 p35 inh 0, CAL PDZ FP-2 -3, DYRK1A inh 9 and Yeast UUG start -17.
`O=C(NCc1ccccc1)c1cc2ccccc2oc1=O` gave CAL PDZ FP-1 3, dFosB act 0, CDK5 p35 inh -1, CAL PDZ FP-2 68*, DYRK1A inh 0 and Yeast UUG start 3.
Screening O=C(Nc1ccccn1)Nc1ccccc1Cl returned CAL PDZ FP-1 3, dFosB act -1, CDK5 p35 inh -2, CAL PDZ FP-2 31*, DYRK1A inh -5 and Yeast UUG start -10.
`O=C(NCCCN1CCOCC1)c1cc2c(s1)CCCC2` gave CAL PDZ FP-1 0, dFosB act -4, CDK5 p35 inh -4, CAL PDZ FP-2 -2 and DYRK1A inh 6.
Screening O=C(NCCCN1CCCC1=O)c1cc2c(s1)CCCCC2 returned dFosB act -2, CDK5 p35 inh 1, CAL PDZ FP-2 80*, DYRK1A inh -2 and Yeast UUG start 7.
Screening CC(C)CC1NC(=O)N(CC(=O)NC2CCCCC2)C1=O (configuration not stated) returned CAL PDZ FP-1 -1, dFosB act 1, CDK5 p35 inh 3, CAL PDZ FP-2 0, DYRK1A inh -1 and Yeast UUG start -15.
`CC(C)CC1NC(=O)N(CC(=O)N(C)C2CCCCC2)C1=O` (configuration not stated) gave CAL PDZ FP-1 0, dFosB act -7, CDK5 p35 inh -1, CAL PDZ FP-2 108*, DYRK1A inh -5 and Yeast UUG start 9.
CO[C@H]1CN(C)C(=O)c2cc(NC(=O)C3CC3)ccc2OC[C@H](C)N(C(=O)c2ccncc2)C[C@@H]1C was read as Yeast UUG start 6.
For COc1ccccc1N1CN(S(=O)(=O)c2ccc(C)cc2)c2nc3ccccc3nc21 the results were CAL PDZ FP-1 0, dFosB act inconclusive, CDK5 p35 inh 0, CAL PDZ FP-2 110* and Yeast UUG start -14.
Screening COCC(=O)Nc1ccc2c(c1)OC[C@@H](C)N(Cc1cc(F)ccc1F)C[C@H](C)[C@H](OC)CN(C)C2=O returned Yeast UUG start 0.

Retrieved by compound from the entries so far, four records:
For COc1ccccc1N1CN(S(=O)(=O)c2ccc(C)cc2)c2nc3ccccc3nc21 the results were CAL PDZ FP-1 0, dFosB act inconclusive, CDK5 p35 inh 0, CAL PDZ FP-2 110* and Yeast UUG start -14.
`O=C(NCCCN1CCOCC1)c1cc2c(s1)CCCC2` gave CAL PDZ FP-1 0, dFosB act -4, CDK5 p35 inh -4, CAL PDZ FP-2 -2 and DYRK1A inh 6.
`O=C(NCc1ccc(Cl)cc1)c1cc2ccccc2oc1=O` gave CAL PDZ FP-1 -1, dFosB act 4, CDK5 p35 inh 0, CAL PDZ FP-2 -3, DYRK1A inh 9 and Yeast UUG start -17.
Screening CC(C)CC1NC(=O)N(CC(=O)NC2CCCCC2)C1=O (configuration not stated) returned CAL PDZ FP-1 -1, dFosB act 1, CDK5 p35 inh 3, CAL PDZ FP-2 0, DYRK1A inh -1 and Yeast UUG start -15.

The results go on.
`CCCc1cc(=O)oc2c(CN3CCN(C)CC3)c(O)c(Cl)cc12` gave CAL PDZ FP-1 -1, dFosB act -1, CDK5 p35 inh -3, CAL PDZ FP-2 31*, DYRK1A inh -2 and Yeast UUG start 1.
Screening CCCCc1cc(=O)oc2c(CN3CCCC3)c(O)c(Cl)cc12 returned CAL PDZ FP-1 -1, dFosB act -5, CDK5 p35 inh -1, CAL PDZ FP-2 0, DYRK1A inh 3 and Yeast UUG start -32.
Screening Cc1ccc(C(=O)N/N=C\c2ccccn2)cn1 returned CAL PDZ FP-1 -1, dFosB act -2, CDK5 p35 inh 0, CAL PDZ FP-2 active and DYRK1A inh -1.
C[C@@H](NC(=O)C[C@H]1CC[C@H]2[C@@H](COC[C@@H](O)CN2C)O1)c1ccccc1 was read as Yeast UUG start -14.
Screening CN1CCN(c2ccc(NC(=O)c3ccc(-c4ccc(Br)cc4)o3)cc2)CC1 returned CAL PDZ FP-1 2, dFosB act 41*, CDK5 p35 inh 0, CAL PDZ FP-2 3 and DYRK1A inh 9.
Screening O=C(Nc1ccc(N2CCCC2)cc1)c1ccc(Br)o1 returned CAL PDZ FP-1 0, dFosB act 40*, CDK5 p35 inh 2, CAL PDZ FP-2 2 and Yeast UUG start -9.
Screening CCN1CCN(c2ccc(NC(=O)c3ccc(Br)o3)cc2)CC1 returned CAL PDZ FP-1 0, dFosB act 1, CDK5 p35 inh -1, CAL PDZ FP-2 -4, DYRK1A inh 3 and Yeast UUG start -13.
`CCCN(C)C[C@H]1Oc2ncc(Br)cc2C(=O)N([C@H](C)CO)C[C@H]1C` gave Yeast UUG start -4.
C[C@@H]1CN([C@@H](C)CO)C(=O)c2cc(NC(=O)CCC(F)(F)F)ccc2O[C@H]1CN(C)S(=O)(=O)c1cn(C)cn1 was read as Yeast UUG start 9.
COc1ccc(S(=O)(=O)Nc2ccc3c(c2)C(=O)N([C@@H](C)CO)C[C@@H](C)[C@@H](CN(C)CC2CCCCC2)OCCCC[C@@H](C)O3)cc1 was read as Yeast UUG start 48.
Screening COC(=O)c1c(SCC(=O)NC2CCCCC2)[nH]c2ccccc2c1=O returned CAL PDZ FP-1 -2, dFosB act -18, CDK5 p35 inh -1, CAL PDZ FP-2 31*, DYRK1A inh -1 and Yeast UUG start -19.
`CC(=O)Nc1ccc(S(=O)(=O)NC(CC(=O)NCCC2=CCCCC2)C(C)C)cc1` (configuration not stated) gave CAL PDZ FP-1 0, dFosB act -6, CDK5 p35 inh -1, CAL PDZ FP-2 45*, DYRK1A inh 6 and Yeast UUG start 14.
Screening CCCCCCCCNC(=O)CC(NS(=O)(=O)c1ccc(NC(C)=O)cc1)C(C)C (configuration not stated) returned CAL PDZ FP-1 -2, dFosB act -12, CDK5 p35 inh 0, CAL PDZ FP-2 -1 and Yeast UUG start -8.
`COc1ccccc1-c1cnc2c(c1)C(=O)N([C@@H](C)CO)C[C@H](C)[C@H](CN(C)C(C)=O)O2` gave Yeast UUG start 1.
For CCOc1cc(C(=S)N2CCN(C)CC2)ccc1OCC(=O)N1CCOCC1 the results were CAL PDZ FP-1 -1, dFosB act -3, CDK5 p35 inh 0, CAL PDZ FP-2 31* and DYRK1A inh 0.
O=C(Cc1ncon1)Nc1ccc(F)c(F)c1F was read as CAL PDZ FP-1 0, dFosB act -9, CDK5 p35 inh 0 and CAL PDZ FP-2 78*.
Screening O=C(CNCC(=O)Nc1ccc(F)c(F)c1F)Nc1ccc(F)c(F)c1F returned dFosB act -3, CDK5 p35 inh -1, CAL PDZ FP-2 -9, DYRK1A inh -5 and Yeast UUG start -2.

Screening data as filed in PubChem BioAssay.
